Laboratory results reported in patent publication US10500245B2, “Compositions for preventing and/or treating pathological conditions associated with alpha-glucosidase” (UNIVERSITE DE LA ROCHELLE, priority 2014, dated 2019).

The chains behind the UniProt entries cited, without tags or fusion partners. Where a name states a change or a piece, a line headed by the entry shows the natural chain unless it says otherwise.
UniProt P53341: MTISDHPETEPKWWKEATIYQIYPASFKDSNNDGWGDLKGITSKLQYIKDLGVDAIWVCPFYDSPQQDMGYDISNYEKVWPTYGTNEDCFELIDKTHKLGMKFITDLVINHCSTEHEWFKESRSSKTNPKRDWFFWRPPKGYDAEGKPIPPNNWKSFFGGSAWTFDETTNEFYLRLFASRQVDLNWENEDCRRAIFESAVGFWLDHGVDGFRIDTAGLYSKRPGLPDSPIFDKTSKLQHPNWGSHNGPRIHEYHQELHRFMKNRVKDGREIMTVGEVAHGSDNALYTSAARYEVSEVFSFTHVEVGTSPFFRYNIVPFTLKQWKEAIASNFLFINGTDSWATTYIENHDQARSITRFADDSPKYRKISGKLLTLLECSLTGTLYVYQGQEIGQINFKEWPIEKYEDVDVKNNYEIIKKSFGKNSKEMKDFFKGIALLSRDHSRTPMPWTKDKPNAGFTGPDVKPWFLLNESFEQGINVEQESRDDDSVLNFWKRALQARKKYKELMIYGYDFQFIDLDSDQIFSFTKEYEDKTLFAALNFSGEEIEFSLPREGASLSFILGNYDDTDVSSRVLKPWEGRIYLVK

Biological target: T1, recombinant alpha-glucosidase from S. cerevisiae (maltase) (Saccharomyces cerevisiae, UniProt P53341)
T1 construct: purchased Sigma G0660-750UN
Assay: biochemical
Conditions: Table 2

IC50 (Inhibitory activity on α-glucosidase (IC50) in mg/ml): 1 mM
IC50 (Inhibitory activity on α-glucosidase (IC50) in mmol/l, enzyme 1.6 U/ml, p-NPG 20 mM, pH 6.8, 37° C.): 24.4 ± 0.47 mM
SMILES: OCC(CO)N[C@H]1C[C@](O)(CO)[C@@H](O)[C@H](O)[C@H]1O [Voglibose, voglibose, reference compound]
